# Reference: ChEMBL document CHEMBL2417390 (J Med Chem, 2013)
# Organism: Homo sapiens
# Test: Selectivity factor, ratio of IC50 for human CYP11B1 to IC50 for human CYP11B2
smiles,measurement,value
C[C@]12CC[C@H](O)CC1=CC[C@@H]1[C@@H]2CC[C@]2(C)C(c3cccnc3)=CC[C@@H]12,Ratio IC50,1
